By UniProt entry, the sequences of proteins in these tests, tags left out.
UniProt P81908, whole entry: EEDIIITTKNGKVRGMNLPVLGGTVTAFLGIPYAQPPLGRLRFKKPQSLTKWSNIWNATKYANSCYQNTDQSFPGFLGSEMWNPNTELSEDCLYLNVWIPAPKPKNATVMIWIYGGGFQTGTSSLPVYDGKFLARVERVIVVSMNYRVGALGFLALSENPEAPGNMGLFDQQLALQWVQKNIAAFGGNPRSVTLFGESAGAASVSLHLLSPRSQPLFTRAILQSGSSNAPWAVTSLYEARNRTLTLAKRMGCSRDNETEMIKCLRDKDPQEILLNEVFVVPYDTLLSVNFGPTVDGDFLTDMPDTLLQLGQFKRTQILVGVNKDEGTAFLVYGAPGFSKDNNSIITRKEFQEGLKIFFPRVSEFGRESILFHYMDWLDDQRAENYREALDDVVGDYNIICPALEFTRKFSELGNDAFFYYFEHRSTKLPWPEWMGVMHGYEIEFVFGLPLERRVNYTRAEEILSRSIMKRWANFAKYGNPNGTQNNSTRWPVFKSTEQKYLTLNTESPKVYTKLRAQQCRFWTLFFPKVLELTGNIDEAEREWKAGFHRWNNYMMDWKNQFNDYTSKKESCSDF

In ChEMBL document CHEMBL3785077 (J Med Chem, 2016):

Molecular target: Cholinesterase (Equus caballus, UniProt P81908)
Assay: Inhibition of equine serum butyrylcholinesterase using […] as substrate preincubated for 30 mins followed by substrate addition measured after 2.5 mins by Ellman's spectrophotometric method
How it was run: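 Ellman assay at 25 °C in phosphate buffer pH 8.0. Enzyme (AChE from human erythrocytes, BChE from equine or human serum; 2.5 units/mL stock with 2 mg/mL BSA) and DTNB (0.3 mM in assay) preincubated with compound from ethanol stocks (1 nM−1 mM in assay). Acetyl- or butyrylthiocholine added (452 μM in assay), absorbance at 412 nm after 2.5 min. Ethanol control, triplicates, IC50 from activity vs log concentration.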

CNC(=O)Oc1ccc2c(c1)[C@]1(C)CCN(C)[C@@H]1N2C [PHYSOSTIGMINE]
IC50: 78 nM
